Measured values: patent publication US20060122106A1, “Prevention and/or treatment of inflammatory bowel disease using pyy or agonists thereof” (Amylin Pharmaceuticals, Inc, priority 2002, published 2006)

Test system: rat model of chronic colonic inflammation (colitis induced by TNBS)
Assay: TNBS hapten-induced colitis model of inflammatory bowel disease (Example 1)
Assay type: in vivo
Conditions: TNBS colitis rats, excised spleen four days after induction (FIG. 3)
Procedure: Animal preparation: 10-11 weeks old male HSD rats, ranging 250-300 grams, were housed in a 12:12 light:dark cycle, and allowed ad libitum access to a standard rodent diet (Teklad L M 485, Madison, Wis.) and water. The animals were fasted for 24 hours before the experiment. Procedure: A simple and reproducible rat model of chronic colonic inflammation has been previously described by Morris G P, et al., “Hapten-induced model of chronic inflammation and ulceration in the rat colon.” Gastroenterology. 1989; 96:795-803. […] Rats were anesthetized with 3% isofluorane and placed on a regulated heating pad set at 37° C. A gavage needle was inserted rectally into the colon 7 cm. The hapten trinitrobenzenesulfonic acid (TNBS) dissolved in 50% ethanol (v/v) was delivered into the lumen of the colon through the gavage needle at a dose of 30 mg/kg, in a total volume of 0.4-0.6 mL, as described in Mazelin, supra. Control groups received saline solution (NaCl 0.9%) intracolonically. Four days after induction of colitis, the colon was resected from anesthetized rats, which were then euthanized by decapitation. Weights of excised colon and spleen were measured, and the colons photographed for scoring of gross morphologic damage according to Table 1 before division into 3 parts. The segment of colon 1 cm from the cecum was fixed in 10% formalin. Other segments were immediately frozen on dry ice. […]

spleen weight (systemic immune suppression): did not decrease
Compound: CC[C@H](C)[C@H](N)C(=O)N[C@@H](CCCCN)C(=O)N1CCC[C@H]1C(=O)N[C@@H](CCC(=O)O)C(=O)N[C@@H](C)C(=O)N1CCC[C@H]1C(=O)NCC(=O)N[C@@H](CCC(=O)O)C(=O)N[C@@H](CC(=O)O)C(=O)N[C@@H](C)C(=O)N[C@@H](CO)C(=O)N1CCC[C@H]1C(=O)N[C@@H](CCC(=O)O)C(=O)N[C@@H](CCC(=O)O)C(=O)N[C@@H](CC(C)C)C(=O)N[C@@H](CC(N)=O)C(=O)N[C@@H](CCCN=C(N)N)C(=O)N[C@@H](Cc1ccc(O)cc1)C(=O)N[C@@H](Cc1ccc(O)cc1)C(=O)N[C@@H](C)C(=O)N[C@@H](CO)C(=O)N[C@@H](CC(C)C)C(=O)N[C@@H](CCCN=C(N)N)C(=O)N[C@@H](Cc1cnc[nH]1)C(=O)N[C@@H](Cc1ccc(O)cc1)C(=O)N[C@@H](CC(C)C)C(=O)N[C@@H](CC(N)=O)C(=O)N[C@@H](CC(C)C)C(=O)N[C@H](C(=O)N[C@H](C(=O)N[C@@H](CCCN=C(N)N)C(=O)N[C@@H](CCC(N)=O)C(=O)N[C@@H](CCCN=C(N)N)C(=O)N[C@@H](Cc1ccc(O)cc1)C(N)=O)[C@@H](C)O)C(C)C [PYY[3-36]]
